Publication PMC6201588, “Molecular cloning and characterization of vanillin dehydrogenase from Streptomyces sp. NL15-2K” (BMC Microbiology, 2018)

Test system: O=Cc1ccccc1O
Assay: purified protein
Settings: co-substrate NAD+ (0.5 mM in standard assay), 30 °C, pH 9.5

“VDH (vanillin dehydrogenase) from Streptomyces sp. NL15-2K (Streptomyces sp. NL15-2K; S2A)” showed a Km of 566 ± 81.5 µM, a kcat of 14.9 s⁻¹ and a kcat/Km of 26000 M⁻¹ s⁻¹.
